# According to PubChem BioAssay AID588489 (Sanford-Burnham Center for Chemical Genomics, 2011):
# Chains of the proteins cited; added tags and fusions are not shown.
# UniProt P11940, whole entry: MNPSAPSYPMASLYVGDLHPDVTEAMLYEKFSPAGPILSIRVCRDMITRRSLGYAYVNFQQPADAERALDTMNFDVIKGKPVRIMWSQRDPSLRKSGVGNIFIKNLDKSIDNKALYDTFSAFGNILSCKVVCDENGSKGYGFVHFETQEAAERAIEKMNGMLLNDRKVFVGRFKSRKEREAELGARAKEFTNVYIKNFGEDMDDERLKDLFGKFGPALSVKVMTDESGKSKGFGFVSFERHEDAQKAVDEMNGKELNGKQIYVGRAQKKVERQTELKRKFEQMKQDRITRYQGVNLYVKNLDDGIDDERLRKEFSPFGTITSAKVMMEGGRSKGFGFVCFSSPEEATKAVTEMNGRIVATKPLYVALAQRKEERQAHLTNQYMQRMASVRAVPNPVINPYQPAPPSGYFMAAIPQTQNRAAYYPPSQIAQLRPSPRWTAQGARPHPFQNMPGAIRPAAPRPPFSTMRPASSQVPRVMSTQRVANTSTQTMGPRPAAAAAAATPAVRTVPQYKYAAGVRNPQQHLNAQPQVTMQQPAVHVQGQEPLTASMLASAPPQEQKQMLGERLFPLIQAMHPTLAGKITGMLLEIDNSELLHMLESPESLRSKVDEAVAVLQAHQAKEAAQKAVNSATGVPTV
# Only a part is listed here, and it is no random draw. Active and inactive are the calls of the source. Rule as the data show it: active = inhibition above about 35% (passing the limit was not always enough); inactive = the rest.
# Target: Polyadenylate-binding protein 1 (Homo sapiens) (UniProt P11940)
# Test: PAM2 peptide displacement from PABP1 MLLE – biochemical, fluorescence polarization, FITC-PAM2, GST-MLLE, primary screen (AID 588489);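 also: plate controls were DMSO wells with GST-MLLE for no effect and wells lacking GST-MLLE protein for full effect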
# Conditions: at 20 µM, hits give high values
row,SMILES,inhibition
1,O=C(OCCN1CCN(CCOCc2ccccc2)CC1)C(O)(c1ccccc1)c1ccccc1,inactive: -7.46%
2,CP(=O)(Nc1ccccc1F)Oc1ccccc1 (configuration not stated),inactive: -10.8%
3,CC(C)c1ccc(OP(C)(=O)Nc2ccc(SC(F)(F)F)cc2)cc1 (configuration not stated),inactive: -4.87%
4,O=[N+]([O-])c1cc([N+](=O)[O-])c(Nc2ccc(Cl)cc2)c([N+](=O)[O-])c1,inactive: -10.2%
5,Cc1ccccc1NP(C)(=O)Nc1ccccc1C,inactive: 3.54%
6,CP(=O)(Nc1ccc2c(c1)OCCO2)Oc1ccccc1 (configuration not stated),inactive: -14.1%
7,CCOP(C)(=S)SCC(=O)NC(C)(CC)C(=O)O (configuration not stated),inactive: 12.3%
8,CP(=O)(Nc1ccc(SC(F)(F)F)cc1)Oc1ccc(F)cc1 (configuration not stated),inactive: -1.94%
9,Cc1c(C(c2ccc3c(c2)OCO3)c2c(C)n(C)n(-c3ccccc3)c2=O)c(=O)n(-c2ccccc2)n1C.O=[N+]([O-])c1cc([N+](=O)[O-])c(O)c([N+](=O)[O-])c1,inactive: 4.11%
10,O=[N+]([O-])c1ccc(OP2(=O)COCCO2)cc1 (configuration not stated),inactive: -3.9%
11,Cc1cc(-c2cccc3ccccc23)c(C)cn1.O=[N+]([O-])c1cc([N+](=O)[O-])c(O)c([N+](=O)[O-])c1,inactive: 13.2%
12,O=[N+]([O-])c1cc([N+](=O)[O-])c(NCC2CCS(=O)(=O)C2)c([N+](=O)[O-])c1 (configuration not stated),inactive: -8.09%
13,CN(C)CCOC(=O)C(O)(c1ccccc1)C1CCCCC1 (configuration not stated),inactive: 1.13%
14,COc1ccc(NP(C)(=O)Oc2ccccc2OC)cc1 (configuration not stated),inactive: 2.85%
15,COc1ccc(OP(C)(=O)Nc2cccc(Br)c2)cc1 (configuration not stated),inactive: 1.8%
16,CCOC(=O)c1ccc(NP(C)(=O)Oc2ccc(Cl)cc2)cc1 (configuration not stated),inactive: 4.11%
17,CP(=O)(OC12CC3CC(CC(C3)C1)C2)OC12CC3CC(CC(C3)C1)C2,inactive: -18.6%
18,CN(C)C(=O)c1c([N+](=O)[O-])cc([N+](=O)[O-])cc1[N+](=O)[O-],inactive: 9.36%
19,CC(C)(C)c1ccc(OP(C)(=O)O)cc1,inactive: -5.47%
20,COc1ccccc1OP(C)(=O)Nc1ccccc1Br (configuration not stated),inactive: -0.58%
21,CP(=O)(Nc1ccc(Cl)cc1)Oc1ccc(F)cc1 (configuration not stated),inactive: 2%

row,SMILES,inhibition
1,O=C(OCCCN1CCCC1)C(O)(c1ccccc1)C1CCCCC1 (configuration not stated),inactive: -13.5%
2,COc1ccccc1OP(C)(=O)Nc1c(C)n(C)n(-c2ccccc2)c1=O (configuration not stated),inactive: -2.33%
3,CCc1ccc(OP(C)(=O)Nc2cccnc2)cc1 (configuration not stated),inactive: -2.01%
4,CP(=O)(Oc1ccccc1)N1CCOC1=O (configuration not stated),inactive: -0.98%
5,COc1ccc(OP(C)(=O)Nc2ccc(Br)cc2)cc1 (configuration not stated),inactive: -3.02%
6,CCN(CC)CC(O)COC(=O)C(O)(c1ccccc1)C1CCCCC1 (configuration not stated),inactive: 2.72%
7,COc1ccccc1OP(C)(=O)Nc1ccc(C)cc1C (configuration not stated),inactive: 12.5%
8,CP(=O)(Nc1ccccn1)Oc1ccccc1 (configuration not stated),inactive: 2.61%
9,CCc1ccc(OP(C)(=O)O)cc1,inactive: -9.1%
10,O=[N+]([O-])c1cc([N+](=O)[O-])c(Nc2ccccn2)c([N+](=O)[O-])c1,inactive: -2.23%
11,Cc1c(NP(C)(=O)Oc2ccc(C(C)C)cc2)c(=O)n(-c2ccccc2)n1C (configuration not stated),inactive: -1.2%
12,COc1ccc(OP(C)(=O)Nc2ccccn2)cc1 (configuration not stated),inactive: 6.37%
13,CN(C)CCOC(=O)C(O)(c1ccccc1)C1CCCC1 (configuration not stated),inactive: -0.7%
14,COc1ccccc1OP(C)(=O)Nc1ccc(Br)cc1 (configuration not stated),inactive: -1.82%
15,CP(=O)(OCCOc1ccccc1)OCCOc1ccccc1,inactive: 6.85%
16,CCCCCCCCCCCCCCCC1C[N+](C)(C)CCOP(C)(=O)O1 (configuration not stated),inactive: 10.7%
17,CP(=O)(Nc1ccc(Cl)cc1Cl)Oc1ccccc1 (configuration not stated),inactive: -11.4%
18,COc1ccccc1OP(C)(=O)Nc1ccc(C)c(C)c1 (configuration not stated),inactive: 3.08%
19,COc1ccc(OP(C)(=O)Nc2ccccc2Br)cc1 (configuration not stated),inactive: 10.5%
20,Cc1cc(C)cc(OP(C)(=O)Nc2cccc(C(F)(F)F)c2)c1 (configuration not stated),inactive: 6.16%
21,O=C1C(O)=C([N+](=O)[O-])C(=O)C(O)=C1[N+](=O)[O-],inactive: 1.47%
